# Experimental data as given in paper PMC4501388 (European journal of medicinal chemistry, 2015).
# Values joined by “and” are separate entries in the source; they are usually repeats but may differ in a detail not shown here. Equal entries are not always repeated.
# Columns and labels:
# [1] = tested on: rats bearing intracerebral RG2 gliomas; experiment: In vivo biodistribution study, boron determination by ICP-OES; parameters: species or system rat; details: 100 μg boron i.c. by ALZET pump over 24 h
# intracerebral RG2 tumors = experiment: In vivo metabolomic HRMS study; parameters: species or system rat; details: intracerebral RG2 glioma
substance,measurement,setting,value
"3-[5-{2-(2,3-dihydroxyprop-1-yl)-o-carboran-1-yl}pentan-1-yl]thymidine [Compound 2]","Boron concentration, L. Brain",[1]; left cerebral hemisphere,1.3 µg/g and 1.3 ± 0.5 µg/g
same,"Boron concentration, R. Brain",[1]; right cerebral hemisphere,1.5 µg/g and 2.1 ± 0.9 µg/g
same,5′-Monophosphate metabolite formation,intracerebral RG2 tumors; HRMS,monophosphorylated
same,Di- and triphosphate metabolites,intracerebral RG2 tumors; HRMS positive and negative ion mode,could not be detected
